In US12435089B2, “3-oxadiazolyl substituted pyrazolo[1,5,a]pyrimidines for ROS1, NTRK, and ALK mediated diseases” (TYK MEDICINES, INC., priority 2019, dated 2025) one finds IC50 data, which are given here for one compound.

Sequences of proteins named here, by UniProt entry; tags and fusion partners are left off. A change or cut given only in a name is not applied to a line headed by its entry. Residues count along the entry.
UniProt P08922, 28-2347 limits assumed: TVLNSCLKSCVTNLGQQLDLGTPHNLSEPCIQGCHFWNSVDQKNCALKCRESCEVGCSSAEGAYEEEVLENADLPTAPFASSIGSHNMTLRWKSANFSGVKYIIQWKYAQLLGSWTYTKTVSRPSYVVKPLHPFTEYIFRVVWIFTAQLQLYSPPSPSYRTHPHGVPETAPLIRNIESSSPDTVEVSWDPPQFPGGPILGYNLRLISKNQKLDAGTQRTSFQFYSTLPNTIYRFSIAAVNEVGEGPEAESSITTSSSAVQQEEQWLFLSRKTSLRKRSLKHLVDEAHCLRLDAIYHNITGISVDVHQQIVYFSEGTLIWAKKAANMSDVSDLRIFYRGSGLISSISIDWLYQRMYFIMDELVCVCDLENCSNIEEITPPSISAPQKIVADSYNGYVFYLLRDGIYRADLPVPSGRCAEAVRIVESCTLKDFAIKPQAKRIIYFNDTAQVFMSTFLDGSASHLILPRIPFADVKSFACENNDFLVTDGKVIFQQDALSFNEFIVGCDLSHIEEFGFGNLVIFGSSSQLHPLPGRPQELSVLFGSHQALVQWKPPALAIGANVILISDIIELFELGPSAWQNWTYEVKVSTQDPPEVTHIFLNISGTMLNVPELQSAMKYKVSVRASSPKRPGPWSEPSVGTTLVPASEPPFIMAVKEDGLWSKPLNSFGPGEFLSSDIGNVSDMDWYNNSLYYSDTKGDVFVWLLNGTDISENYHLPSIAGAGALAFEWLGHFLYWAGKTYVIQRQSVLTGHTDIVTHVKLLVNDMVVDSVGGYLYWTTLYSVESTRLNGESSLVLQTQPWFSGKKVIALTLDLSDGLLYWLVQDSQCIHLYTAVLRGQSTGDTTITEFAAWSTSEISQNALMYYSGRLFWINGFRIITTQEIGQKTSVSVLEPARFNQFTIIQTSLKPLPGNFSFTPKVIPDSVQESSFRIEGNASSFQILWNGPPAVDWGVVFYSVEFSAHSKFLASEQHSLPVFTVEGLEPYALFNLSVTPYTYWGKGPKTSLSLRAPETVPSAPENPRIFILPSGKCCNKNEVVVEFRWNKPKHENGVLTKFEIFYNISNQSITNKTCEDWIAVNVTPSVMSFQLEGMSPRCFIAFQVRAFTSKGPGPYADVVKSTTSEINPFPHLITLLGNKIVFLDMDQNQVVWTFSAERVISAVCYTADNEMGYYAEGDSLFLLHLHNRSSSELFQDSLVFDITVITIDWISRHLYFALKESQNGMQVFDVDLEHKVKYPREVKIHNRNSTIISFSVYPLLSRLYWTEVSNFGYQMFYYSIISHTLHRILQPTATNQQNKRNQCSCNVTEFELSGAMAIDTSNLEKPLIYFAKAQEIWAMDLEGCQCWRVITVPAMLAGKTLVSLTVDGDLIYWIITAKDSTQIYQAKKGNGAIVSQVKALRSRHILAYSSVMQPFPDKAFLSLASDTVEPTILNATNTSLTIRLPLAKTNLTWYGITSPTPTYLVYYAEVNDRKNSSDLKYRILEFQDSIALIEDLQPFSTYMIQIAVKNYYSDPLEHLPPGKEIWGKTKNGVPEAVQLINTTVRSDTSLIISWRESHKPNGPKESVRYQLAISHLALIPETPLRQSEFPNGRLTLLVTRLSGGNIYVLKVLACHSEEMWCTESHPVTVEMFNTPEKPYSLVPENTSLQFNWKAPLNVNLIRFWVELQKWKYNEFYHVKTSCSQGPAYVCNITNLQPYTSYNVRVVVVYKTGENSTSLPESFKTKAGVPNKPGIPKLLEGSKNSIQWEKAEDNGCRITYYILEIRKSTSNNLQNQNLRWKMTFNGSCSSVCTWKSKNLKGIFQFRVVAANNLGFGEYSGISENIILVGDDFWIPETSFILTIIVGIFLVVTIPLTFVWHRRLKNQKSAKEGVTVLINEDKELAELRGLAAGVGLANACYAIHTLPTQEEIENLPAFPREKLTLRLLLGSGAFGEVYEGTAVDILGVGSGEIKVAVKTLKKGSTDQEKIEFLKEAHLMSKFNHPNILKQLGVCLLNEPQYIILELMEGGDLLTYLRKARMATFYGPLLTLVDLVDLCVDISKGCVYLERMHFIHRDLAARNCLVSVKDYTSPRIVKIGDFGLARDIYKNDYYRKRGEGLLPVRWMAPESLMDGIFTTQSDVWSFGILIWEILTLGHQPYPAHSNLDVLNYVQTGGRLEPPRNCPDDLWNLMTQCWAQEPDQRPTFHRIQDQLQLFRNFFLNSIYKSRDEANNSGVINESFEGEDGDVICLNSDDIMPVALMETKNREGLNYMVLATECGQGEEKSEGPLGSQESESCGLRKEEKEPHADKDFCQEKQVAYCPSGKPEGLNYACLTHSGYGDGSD
UniProt P08922, 28-2347 G2032R limits assumed: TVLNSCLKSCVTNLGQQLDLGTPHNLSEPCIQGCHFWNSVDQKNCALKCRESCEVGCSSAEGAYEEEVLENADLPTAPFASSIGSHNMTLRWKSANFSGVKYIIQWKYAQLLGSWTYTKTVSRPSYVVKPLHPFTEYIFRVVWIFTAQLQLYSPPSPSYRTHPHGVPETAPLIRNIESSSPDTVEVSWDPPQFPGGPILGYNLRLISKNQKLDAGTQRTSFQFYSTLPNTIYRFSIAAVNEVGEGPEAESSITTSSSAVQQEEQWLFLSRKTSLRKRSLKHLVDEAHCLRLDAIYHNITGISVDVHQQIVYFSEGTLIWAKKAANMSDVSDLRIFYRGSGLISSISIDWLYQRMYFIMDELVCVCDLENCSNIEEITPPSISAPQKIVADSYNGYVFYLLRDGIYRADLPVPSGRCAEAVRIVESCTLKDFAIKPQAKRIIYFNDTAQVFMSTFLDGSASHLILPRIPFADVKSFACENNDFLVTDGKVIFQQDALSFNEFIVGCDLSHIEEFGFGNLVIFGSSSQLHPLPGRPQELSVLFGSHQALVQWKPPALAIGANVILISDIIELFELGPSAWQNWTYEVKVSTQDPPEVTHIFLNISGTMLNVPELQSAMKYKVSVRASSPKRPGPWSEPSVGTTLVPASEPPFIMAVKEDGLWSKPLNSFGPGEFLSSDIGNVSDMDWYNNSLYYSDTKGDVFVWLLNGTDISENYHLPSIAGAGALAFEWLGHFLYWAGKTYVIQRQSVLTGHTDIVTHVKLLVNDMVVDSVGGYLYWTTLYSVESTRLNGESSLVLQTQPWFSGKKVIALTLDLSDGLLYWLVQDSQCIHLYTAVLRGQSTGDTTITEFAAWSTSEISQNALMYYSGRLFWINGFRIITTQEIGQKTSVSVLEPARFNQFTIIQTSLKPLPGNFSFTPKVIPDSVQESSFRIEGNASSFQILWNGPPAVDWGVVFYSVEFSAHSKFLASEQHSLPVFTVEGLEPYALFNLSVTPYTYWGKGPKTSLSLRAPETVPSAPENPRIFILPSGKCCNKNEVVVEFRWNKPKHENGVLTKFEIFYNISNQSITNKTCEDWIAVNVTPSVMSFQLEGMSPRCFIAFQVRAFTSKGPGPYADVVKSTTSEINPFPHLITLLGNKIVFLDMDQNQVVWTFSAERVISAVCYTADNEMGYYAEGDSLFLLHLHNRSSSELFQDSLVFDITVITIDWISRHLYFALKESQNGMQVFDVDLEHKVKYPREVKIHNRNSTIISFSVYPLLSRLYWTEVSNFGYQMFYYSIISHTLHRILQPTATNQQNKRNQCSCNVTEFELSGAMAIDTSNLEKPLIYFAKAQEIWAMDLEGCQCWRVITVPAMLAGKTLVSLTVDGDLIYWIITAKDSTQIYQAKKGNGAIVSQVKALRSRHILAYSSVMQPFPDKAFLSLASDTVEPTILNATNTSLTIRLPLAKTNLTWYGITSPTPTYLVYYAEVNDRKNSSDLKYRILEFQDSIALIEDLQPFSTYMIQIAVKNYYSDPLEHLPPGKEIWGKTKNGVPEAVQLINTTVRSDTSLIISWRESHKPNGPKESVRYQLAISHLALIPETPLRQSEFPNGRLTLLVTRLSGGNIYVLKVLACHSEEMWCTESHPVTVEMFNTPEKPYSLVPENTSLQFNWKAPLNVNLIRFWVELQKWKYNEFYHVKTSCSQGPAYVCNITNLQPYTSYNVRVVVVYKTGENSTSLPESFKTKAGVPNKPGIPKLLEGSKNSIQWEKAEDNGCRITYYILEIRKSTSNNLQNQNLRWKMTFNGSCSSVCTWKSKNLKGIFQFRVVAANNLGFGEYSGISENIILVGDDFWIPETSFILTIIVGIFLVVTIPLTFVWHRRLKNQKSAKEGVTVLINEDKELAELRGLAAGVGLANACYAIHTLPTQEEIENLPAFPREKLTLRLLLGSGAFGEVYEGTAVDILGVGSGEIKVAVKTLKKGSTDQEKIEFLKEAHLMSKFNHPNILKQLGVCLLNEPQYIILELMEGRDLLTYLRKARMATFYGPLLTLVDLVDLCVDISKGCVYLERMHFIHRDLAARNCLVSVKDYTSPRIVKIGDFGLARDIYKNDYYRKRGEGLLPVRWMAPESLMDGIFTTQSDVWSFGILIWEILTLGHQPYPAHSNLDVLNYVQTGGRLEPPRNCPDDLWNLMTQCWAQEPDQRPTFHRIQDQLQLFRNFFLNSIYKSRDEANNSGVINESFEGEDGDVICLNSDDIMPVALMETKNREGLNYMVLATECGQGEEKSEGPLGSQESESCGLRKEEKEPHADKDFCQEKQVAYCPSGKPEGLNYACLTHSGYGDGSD
UniProt Q16288, 32-839 limits assumed: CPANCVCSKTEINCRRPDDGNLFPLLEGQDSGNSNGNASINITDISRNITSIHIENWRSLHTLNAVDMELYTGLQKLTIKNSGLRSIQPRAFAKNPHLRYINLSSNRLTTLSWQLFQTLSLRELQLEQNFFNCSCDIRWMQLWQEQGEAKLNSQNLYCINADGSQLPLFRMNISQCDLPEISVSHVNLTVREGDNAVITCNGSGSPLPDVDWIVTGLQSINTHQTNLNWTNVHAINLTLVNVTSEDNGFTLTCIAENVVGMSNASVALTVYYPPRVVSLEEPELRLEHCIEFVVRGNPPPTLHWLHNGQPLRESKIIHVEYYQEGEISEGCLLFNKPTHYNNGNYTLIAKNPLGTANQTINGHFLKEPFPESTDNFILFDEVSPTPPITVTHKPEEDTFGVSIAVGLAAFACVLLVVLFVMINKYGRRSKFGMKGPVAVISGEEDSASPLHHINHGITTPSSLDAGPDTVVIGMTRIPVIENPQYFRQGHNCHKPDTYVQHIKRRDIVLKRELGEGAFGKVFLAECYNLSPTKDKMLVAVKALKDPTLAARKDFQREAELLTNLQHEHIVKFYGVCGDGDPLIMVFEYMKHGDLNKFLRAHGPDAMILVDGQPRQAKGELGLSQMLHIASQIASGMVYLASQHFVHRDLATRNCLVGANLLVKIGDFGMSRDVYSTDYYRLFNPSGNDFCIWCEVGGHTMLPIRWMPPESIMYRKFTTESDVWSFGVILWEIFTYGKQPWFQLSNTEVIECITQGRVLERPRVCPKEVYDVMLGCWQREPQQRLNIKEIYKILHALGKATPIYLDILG

The subject of one test is Ba/F3-CD74-ROS1. Kind of test: Inhibition of cell proliferation (CellTiter-Glo), Ba/F3-CD74-ROS1. To be noted: read-out: Ba/F3-CD74-ROS1 (IC50/nM), 72 hours.
For the next test, the target named is ROS1 (G2032R) (Homo sapiens (Human), UniProt P08922, G2032R). The test can be described thus: Radio-tagged HotSpot kinase assay, ROS1 (G2032R). To be noted: read-out: ROS1 (G2032R) (IC50/nM); 33P-ATP, 120 min, room temperature.
The next test relates to Ba/F3-CD74-ROS1-G2032R. The test can be described thus: Inhibition of cell proliferation (CellTiter-Glo), Ba/F3-CD74-ROS1-G2032R. To be noted: read-out: Ba/F3-CD74-ROS1-G2032R (IC50/nM), 72 hours.
A further test concerns Ba/F3-LMNA-NTRK1. The test can be described thus: Inhibition of cell proliferation (CellTiter-Glo), Ba/F3-LMNA-NTRK1. To be noted: read-out: Ba/F3-LMNA-NTRK1 (IC50/nM), 72 hours.
For a further test, the target named is ROS1 (Homo sapiens (Human), UniProt P08922). The test can be described thus: Radio-tagged HotSpot kinase assay, ROS1. To be noted: read-out: ROS1 (IC50/nM); 33P-ATP, 120 min, room temperature.
The target of the next test is TRKC (Homo sapiens (Human), UniProt Q16288). Kind of test: Radio-tagged HotSpot kinase assay, TRKC. To be noted: read-out: TRKC (IC50/nM); 33P-ATP, 120 min, room temperature.
The next test has as its system Ba/F3-LMNA-NTRK1-G595R. The test can be described thus: Inhibition of cell proliferation (CellTiter-Glo), Ba/F3-LMNA-NTRK1-G595R. The following applies: read-out: Ba/F3-LMNA-NTRK1-G595R (IC50/nM), 72 hours.

With `COc1ccc(F)cc1[C@@H](C)Nc1ccn2ncc(C3=NOC4(CCN(S(C)(=O)=O)CC4)N3)c2n1`, the IC50 with Ba/F3-CD74-ROS1 was 4.5 nM; on ROS1 (G2032R), below 0.5 nM; in the test on Ba/F3-CD74-ROS1-G2032R, 38.9 nM; with Ba/F3-LMNA-NTRK1, 26.2 nM; on ROS1, below 0.5 nM; at TRKC it was below 0.5 nM. In addition, the IC50 in the test on Ba/F3-LMNA-NTRK1-G595R was 45.3 nM.
